Assay results from US8357695B2, “Hydrates of 2-chloro-5-[3,6-dihydro-3-methyl-2,6-dioxo-4-(trifluoromethyl)-1-(2H)-pyrimidinyl]-4-fluoro-N-[[methyl(1-methylethyl)amino]sulfonyl]benzamide” (BASF SE, priority 2006, dated 2013).
Read-outs that look alike come from different tables or passages of the source.

Legend:
[1] = tested on: Veronica persicaria; conditions: harmful plant Veronica persicaria, 15 g/ha a.s.
Description: (§1) The seeds of the test plants were sown separately for each species.
(§2) The test period extended over 2 to 4 weeks.

[2] = tested on: Euphorbia heterophylla; conditions: harmful plant Euphorbia heterophylla, pre-emergence
Description: as §1, §2

[3] = tested on: Helianthus annuus; conditions: harmful plant Helianthus annuus, pre-emergence, 12.5 g/ha a.s.
Description: as §1, §2

[4] = tested on: Sinapis arvensis; conditions: harmful plant Sinapis arvensis, post-emergence, 10 g/ha a.s.
Description: as §1, §2

[5] = tested on: Viola arvensis; conditions: harmful plant Viola arvensis
Description: as §1, §2

[6] = tested on: Capsella bursa-pastoris; conditions: harmful plant Capsella bursa-pastoris, post-emergence, 15 g/ha a.s.
Description: as §1, §2

[7] = tested on: Galium aparine; conditions: harmful plant Galium aparine, post-emergence + 1 l/ha Rustica Öl, 15 g/ha a.s.
Description: as §1, §2

[8] = tested on: Triticum aestivum; conditions: useful plant Triticum aestivum, 20 g/ha a.s.
Description: as §1, §2

[9] = tested on: Kochia scoparia; conditions: harmful plant Kochia scoparia, post-emergence, 20 g/ha a.s.
Description: as §1, §2

[10] = tested on: Matricaria inodora; conditions: harmful plant Matricaria inodora
Description: as §1, §2

[11] = tested on: Polygonum convolvulus; conditions: harmful plant Polygonum convolvulus, post-emergence + 1 l/ha Rustica Öl, 15 g/ha a.s.
Description: as §1, §2

[12] = tested on: Hordeum vulgare (spring barley); conditions: useful plant Hordeum vulgare (spring barley), post-emergence + 1 l/ha Rustica Öl, 20 g/ha a.s.
Description: as §1, §2

[13] = tested on: Glycine max; conditions: useful plant Glycine max, pre-emergence
Description: as §1, §2

[14] = tested on: Stellaria media; conditions: harmful plant Stellaria media, pre-emergence, 12.5 g/ha a.s.
Description: as §1, §2

[15] = tested on: Thlaspi arvense; conditions: harmful plant Thlaspi arvense, post-emergence, 10 g/ha a.s.
Description: as §1, §2

[16] = tested on: Salsola kali ssp. ruthenica; conditions: harmful plant Salsola kali ssp. ruthenica, post-emergence, 20 g/ha a.s.
Description: as §1, §2

[17] = tested on: Ambrosia elatior; conditions: harmful plant Ambrosia elatior, pre-emergence, 12.5 g/ha a.s.
Description: as §1, §2

[18] = tested on: Veronica hederaefolia; conditions: harmful plant Veronica hederaefolia, post-emergence + 1 l/ha Rustica Öl, 15 g/ha a.s.
Description: as §1, §2

[19] = tested on: Hordeum vulgare (winter barley); conditions: useful plant Hordeum vulgare (winter barley)
Description: as §1, §2

[20] = tested on: Chenopodium album; conditions: harmful plant Chenopodium album, post-emergence + 1 l/ha Rustica Öl, 15 g/ha a.s.
Description: as §1, §2

[21] = tested on: Secale cereale; conditions: useful plant Secale cereale
Description: as §1, §2

[22] = tested on: Amaranthus retroflexus; conditions: harmful plant Amaranthus retroflexus, post-emergence, 10 g/ha a.s.
Description: as §1, §2

[23] = tested on: Sonchus arvensis; conditions: harmful plant Sonchus arvensis, post-emergence, 15 g/ha a.s.
Description: as §1, §2

[24] = tested on: Mercurialis annua; conditions: harmful plant Mercurialis annua, pre-emergence, 6.25 g/ha a.s.
Description: as §1, §2

[25] = tested on: test plants; conditions: greenhouse tests, overall conclusion in words
[26] = post-emergence + 1 l/ha Rustica Öl
[27] = 12.5 g/ha a.s., listed as Modification I
[28] = post-emergence + 1 l/ha Rustica Öl, 5 g/ha a.s.
[29] = post-emergence + 1 l/ha Rustica Öl, 15 g/ha a.s.
[30] = post-emergence + 1 l/ha Rustica Öl, 20 g/ha a.s.
[31] = post-emergence + 1 l/ha Rustica Öl, 10 g/ha a.s.

Structure (SMILES) | Damage [1, 26] | Damage ([1]; post-emergence) | Damage [4] | Damage [5, 28] | Damage ([5]; post-emergence, 15 g/ha a.s.) | Damage [6] | Damage [7] | Damage [8, 26] | Damage ([8]; post-emergence) | Damage [9] | Damage [10, 28] | Damage ([10]; post-emergence, 15 g/ha a.s.) | Damage [11] | Damage [12] | Damage [15] | Damage [16] | Damage [18] | Damage [19, 29] | Damage [19, 30] | Damage ([19]; post-emergence, 15 g/ha a.s.) | other results
CC(C)N(C)S(=O)(=O)NC(=O)c1cc(-n2c(=O)cc(C(F)(F)F)n(C)c2=O)c(F)cc1Cl (single isomer, unassigned) [Form I, 2-chloro-5-[3,6-dihydro-3-methyl-2,6-dioxo-4-(trifluoromethyl)-1-(2H)-pyrimidinyl]-4-fluoro-N-[[methyl(1-methylethyl)amino]sulfonyl]benzamide] | 70% | 40% | 50% | 40% | 40% | 20% | 75% | 15% | 10% | 45% | 65% | 65% | 70% | 15% | 30% | 80% | 50% | 15% | 20% | 5% | Damage ([2]; 6.25 g/ha a.s., listed as Modification I): 40%; Damage [2, 27]: 95%; Damage ([3]; listed as Modification I): 70%; Damage [13, 27]: 30%; Damage ([13]; 25 g/ha a.s., SC 100 g/l, scale 0-100, listed as Modification I): 70%; Damage ([14]; listed as Modification I): 65%; Damage ([17]; listed as Modification I): 60%; Damage [20]: 70%; Damage [21, 31]: 10%; Damage [21, 29]: 10%; Damage [21, 30]: 15%; Damage ([21]; post-emergence, 20 g/ha a.s.): 15%; Damage [22]: 40%; Damage [23]: 60%; Damage ([24]; listed as Modification I): 40%
CC(C)N(C)S(=O)(=O)NC(=O)c1cc(-n2c(=O)cc(C(F)(F)F)n(C)c2=O)c(F)cc1Cl (single isomer, unassigned) [Form III, 2-chloro-5-[3,6-dihydro-3-methyl-2,6-dioxo-4-(trifluoromethyl)-1-(2H)-pyrimidinyl]-4-fluoro-N-[[methyl(1-methylethyl)amino]sulfonyl]benzamide] | 100% | 100% | 60% | 100% | 100% | 70% | 100% | 10% | 5% | 100% | 100% | 100% | 100% | 5% | 100% | 100% | 70% | 5% | 5% | 0% | Damage ([2]; 6.25 g/ha a.s.): 90%; Damage ([2]; 12.5 g/ha a.s.): 100%; Damage [3]: 75%; Damage ([13]; 12.5 g/ha a.s.): 20%; Damage ([13]; 25 g/ha a.s., SC 100 g/l, scale 0-100): 30%; Damage [14]: 70%; Damage [17]: 80%; Damage [20]: 80%; Damage [21, 31]: 0%; Damage [21, 29]: 0%; Damage [21, 30]: 5%; Damage ([21]; post-emergence, 20 g/ha a.s.): 5%; Damage [22]: 100%; Damage [23]: 100%; Damage [24]: 65%; tolerance by the crop plant in comparison with form I [25]: improved tolerance by the crop plant
CC(C)N(C)S(=O)(=O)NC(=O)c1cc(-n2c(=O)cc(C(F)(F)F)n(C)c2=O)c(F)cc1Cl [Form IV, 2-chloro-5-[3,6-dihydro-3-methyl-2,6-dioxo-4-(trifluoromethyl)-1-(2H)-pyrimidinyl]-4-fluoro-N-[[methyl(1-methylethyl)amino]sulfonyl]benzamide] | – | – | – | – | – | – | – | – | – | – | – | – | – | – | – | – | – | – | – | – | herbicidal activity in comparison with form I [25]: superior to the former in terms of activity
